This note sets out measurements from PubChem BioAssay AID493084 (National Center for Advancing Translational Sciences (NCATS), 2011).

By UniProt entry, the sequences of proteins in these tests, tags left out. Where a name states a change or a piece, a line headed by the entry shows the natural chain unless it says otherwise.
UniProt P34981: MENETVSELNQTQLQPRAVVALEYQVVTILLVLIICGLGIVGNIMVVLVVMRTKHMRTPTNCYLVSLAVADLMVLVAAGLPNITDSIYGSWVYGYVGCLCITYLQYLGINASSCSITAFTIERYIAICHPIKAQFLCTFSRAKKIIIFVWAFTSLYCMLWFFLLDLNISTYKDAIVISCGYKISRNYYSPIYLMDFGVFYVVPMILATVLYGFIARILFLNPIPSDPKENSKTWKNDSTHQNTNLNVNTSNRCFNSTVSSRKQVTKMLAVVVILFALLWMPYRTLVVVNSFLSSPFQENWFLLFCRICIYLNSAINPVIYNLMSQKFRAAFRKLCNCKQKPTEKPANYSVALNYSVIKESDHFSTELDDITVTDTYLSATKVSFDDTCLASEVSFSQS

Structures are written as SMILES. “And” between values parts separate entries of the source, which are not always exact repeats. Equal entries are not always repeated. Only a part is listed here, and it is no random draw. The source made the active and inactive calls. Rule as the data show it: active = activation above about 30%; inactive = the rest.

The assay has as its target Thyrotropin-releasing hormone receptor (Homo sapiens) (UniProt P34981). As to the kind of experiment: qHTS for Small Molecule Agonists and Allosteric Enhancers of Human TRH Receptor: Primary Screen for Agonists. Also: 0% is about no effect. Conditions: TRHR cells, calcium flux fluo-8, FDSS agonist mode; at 2 µM; stronger effect = higher value. The method in brief:
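Read-out: compound-evoked intracellular calcium rise in TRHR cells, fluo-8 dye, kinetic FDSS fluorescence at 1 s/cycle following a 10-cycle baseline. Cells cultured overnight before dye loading (30 min–1.5 h, RT).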
For orientation: Quantitative high-throughput screening tests each substance at several concentrations.
`N#CCCN(C(=O)COC(=O)C(O)(c1ccccc1)c1ccccc1)c1ccc(F)cc1`: the activation is inactive: 0.083%.
For `O=[N+]([O-])c1ccc2c(c1)nnn2O` the value was inactive: 0.067%; for `NC(=O)Nc1ccc([As](=O)(O)O)cc1`, inactive: 0.112%.
In the case of `Nc1ccccc1[As](=O)(O)c1ccccc1`, the activation was inactive: 0.579%.
The figure for `O=C(O)COc1ccc([As](=O)(O)O)cc1[N+](=O)[O-]` is inactive: 0.507%; for `O=P(Nc1nccs1)(c1ccccc1)c1nc2ccccc2s1` (stereo unspecified) it is inactive: 0.218%; for `O=P(Nc1nccs1)(Oc1ccccc1)Oc1ccccc1` it is inactive: -0.368%.
On to `CCOP1(=S)c2c(C)nn(CCC#N)c2N=C(c2ccccc2F)N1C` (stereo unspecified), for which the activation is inactive: 0.244%.
On to `CS(=O)(=O)c1cc([N+](=O)[O-])c2no[n+]([O-])c2c1`, for which the activation was inactive: 7.49%.
For `CN(C)C(=O)Oc1noc2ccccc12` the value was inactive: 0.357%.
The figure for `O=c1c2cc([N+](=O)[O-])ccc2[nH]c2c([N+](=O)[O-])cc([N+](=O)[O-])cc12` is inactive: 11.2%.
For `Cc1ccccc1OP(=O)(Nc1ccccn1)Oc1ccccc1C` the value was inactive: 0.473%; for `CCC(=O)N1C2C3N(C(=O)CC)C1C1N(C(=O)CC)C(C(N1C(=O)CC)N3C(=O)CC)N2C(=O)CC`, inactive: 0.113%.
For the molecule `O=C(OC1CN2CCC1CC2)c1ccccc1` (stereo unspecified), the activation was inactive: -0.293%.
For `CC(=O)NC(SC(=S)N(CC(C)C)CC(C)C)C(Cl)(Cl)Cl` (stereo unspecified) the value was inactive: 1.45%.
The figure for `Cc1ccc(OP(=O)(Nc2ccccn2)Oc2ccc(C)cc2)cc1` is inactive: -0.645%; for `COC(=O)c1cc2c(s1)N=C(c1ccccc1)N(C)P2(=O)N1CCOCC1` (stereo unspecified) it is inactive: 0.0789%; for `Cc1ccc(NP(=O)(Oc2cccc(C)c2)Oc2cccc(C)c2)nc1` it is inactive: 1.18%.
The figure for `CCOC(=O)NC(Sc1ccccc1)C(Cl)(Cl)Cl` (stereo unspecified) is inactive: -0.19%.
For `c1ccc(-c2nn[nH]n2)c(-c2nn[nH]n2)c1`, the activation is inactive: 0.26%.
For `CCNC(=S)/N=C(\N)N[N+](=O)[O-]` the value was inactive: 0.127%.
For `O=C(NC1CCS(=O)(=O)C1)NP(=S)(Oc1ccccc1)Oc1ccccc1` (stereo unspecified) the value was inactive: 0.679%.
As to `CC(=O)Nc1ccc(Oc2c([N+](=O)[O-])cc([N+](=O)[O-])cc2[N+](=O)[O-])cc1`, the activation is inactive: -0.173%.
For `CC(=O)Nc1ccc([As](=O)(O)O)c(O)c1` the value was inactive: 0.429%; for `C[C@@H]1C=CCP(=O)(Oc2ccccc2)O1` (stereo partly specified), inactive: 0.325%; for `C[C@H]1OP(=O)(Oc2ccccc2)C[C@@H]2O[C@@H]21` (stereo partly specified), inactive: -0.258%.
Regarding `Cc1ccccc1CN(C)C(=O)COC(=O)C(O)(c1ccccc1)c1ccccc1`, the activation is inactive: 0.193%.
Consider `CC(=O)c1ccc(N2CC2c2ccncc2)cc1` (stereo unspecified), for which the activation is inactive: 1.39%.
On to `CC(C)(C)C(=O)NC(Sc1ccccc1)C(Cl)(Cl)Cl` (stereo unspecified), for which the activation is inactive: 0.255%.
On to `O=P1(Nc2nc3ccc(Cl)cc3s2)COc2ccccc2O1` (stereo unspecified), for which the activation was inactive: 0.245%.
As for `c1nnnn1CCn1cnnn1`, the activation is inactive: 0.583%.
The figure for `CC(C)C(=O)NC(Sc1ccccc1)C(Cl)(Cl)Cl` (stereo unspecified) is inactive: -0.648%.
Turning to `O=P(Nc1nccs1)(c1ccccc1)c1ccccc1`, the activation was inactive: 0.161%.
On to `O=C(OC1CN2CCC1CC2)c1cccc(Cl)c1` (stereo unspecified), for which the activation was inactive: 1.5%.
On to `Nc1ccc([As](=O)(O)c2ccc([N+](=O)[O-])cc2)cc1`, for which the activation is inactive: 0.503%.
For `C(Cc1nn[nH]n1)Cc1nn[nH]n1` the value was inactive: 0.286%; for `O=[As](O)(c1ccccc1)c1ccc(O)cc1`, inactive: 0.415%.
With `O=[N+]([O-])c1ccc(O)c(/C=N/Nc2ccc([N+](=O)[O-])cc2[N+](=O)[O-])c1`, the activation was inactive: 4.56%.
For `CC(=O)NC(SC(=S)N(C)C)C(Cl)(Cl)Cl` (stereo unspecified) the value was inactive: 0.161%; for `O=[N+]([O-])c1ncn(CCn2cnc([N+](=O)[O-])n2)n1`, inactive: 0.143%.
For `C[C@H]1OP(=O)(Oc2ccccc2)[C@H](O)[C@H](O)[C@H]1N=[N+]=[N-]` (stereo partly specified) the value was inactive: -0.157%; for `O=P(Nc1nc2ccccc2s1)(c1ccccc1)c1ccccc1`, inactive: -1.17%; for `O=P(Nc1ccccn1)(c1ccc(Br)cc1)c1ccc(Br)cc1`, inactive: 0.326%.
On to `CN(C)C1(CNC(=O)c2ccc(Cl)c(S(N)(=O)=O)c2)CCCCC1`, for which the activation is inactive: -1.45%.
With `O=C(O)CNc1ccc([As](=O)(O)O)cc1`, the activation was inactive: -0.553%.
On to `O=[N+]([O-])c1cccc(NC2=NCC(CBr)S2)c1` (stereo unspecified), for which the activation was inactive: -1%.
As to `O=[N+]([O-])c1ncn(CCn2ncnc2[N+](=O)[O-])n1`, the activation is inactive: 0.958%.
For `CC(C)(C)C(=O)NC(Sc1ccncn1)C(Cl)(Cl)Cl` (stereo unspecified) the value was inactive: 0.283%.
For `O=C(Nc1cc([As](=O)(O)O)ccc1O)c1ccccc1` the value was inactive: 0.341%.
On to `CC1CCN(C(=O)Oc2c(Cl)cc(Cl)c3cccnc23)CC1`, for which the activation is inactive: 9.06%.
`CN(C)C(=O)OCCc1n(C)cc[n+]1C`: the activation was inactive: -0.593%.
Turning to `CC(C)=N/N=C(\N)N[N+](=O)[O-]`, the activation was inactive: -0.678%.
The figure for `CCN(/C(=N/P(=O)(N1CCOCC1)N1CCOCC1)N1CCOCC1)c1ccc(OC)cc1` is inactive: 0.278%.
The figure for `C[N+]1=C2C=CC=CC=C2SC12C([N+](=O)[O-])=CC([N+](=O)[O-])=C[C-]2[N+](=O)[O-]` (stereo unspecified) is inactive: 0.935%; for `Nc1ccc([As](=O)(O)c2ccc(N)cc2)cc1` it is inactive: 0.842%; for `CCc1nc2c(n1)c1c(non1O)c1c2no[n+]1[O-]` it is inactive: 0.227%.
The figure for `O=[N+]([O-])c1cc([N+](=O)[O-])c(CCNc2ccccc2)c([N+](=O)[O-])c1` is inactive: 1.3%; for `Cc1ccc(NP(=O)(Oc2ccccc2)Oc2ccccc2)nc1` it is inactive: 0.466%; for `O=[N+]([O-])c1cccc2n[nH]nc12` it is inactive: 0.22%.
Regarding `CC(=O)N1C2C3N(C(C)=O)C1C1N(C(C)=O)C(C(N1C(C)=O)N3C(C)=O)N2C(C)=O`, the activation was inactive: -0.339%.
On to `COc1ccc(C2=NCC(CBr)S2)cc1` (stereo unspecified), for which the activation is inactive: -0.843%.
For `Cc1c2non([O-])c-2c(C)[n+](=O)[n+]1[O-]` the value was inactive: -0.644%; for `O=C(NC(Sc1ccncn1)C(Cl)(Cl)Cl)c1ccccc1` (stereo unspecified), inactive: -0.28%; for `Oc1ccccc1CNc1ccccn1`, inactive: -1.1%.
The figure for `Nc1cc(N)c2nonc2c1[N+](=O)[O-]` is inactive: 0.183%.
The figure for `Clc1ccc(Cl)c(NC2=NCC(CBr)S2)c1` (stereo unspecified) is inactive: -0.433%; for `CN1CCCC(OC(=O)C(c2ccccc2)c2ccccc2)C1` (stereo unspecified) it is inactive: 0.912%; for `Cc1ccc(OP(=O)(Nc2nccs2)Oc2ccc(C)cc2)cc1` it is inactive: -0.125%.
Turning to `COc1ccccc1OP(=O)(Nc1ccc(C)cn1)Oc1ccccc1OC`, the activation was inactive: 0.294%.
Turning to `Cc1ccc(N/C(=N/P(=O)(N2CCOCC2)N2CCOCC2)N2CCOCC2)cc1`, the activation is inactive: -0.986%.
Take `CN(C(=O)Cc1ccc(Cl)c(Cl)c1)[C@H]1CCCC[C@H]1N1CCCC1`: the activation is inactive: 0.829%.
For the molecule `NC(=O)c1cc([N+](=O)[O-])cc([N+](=O)[O-])c1N`, the activation was inactive: -1.1%.
The figure for `Nc1cccc2ccc([As](=O)(O)O)cc12` is inactive: -0.804%; for `CCN(N=Nc1nonc1N)c1nonc1N` it is inactive: 0.132%; for `O=[N+]([O-])c1cc([N+](=O)[O-])c(CCN2CCOCC2)c([N+](=O)[O-])c1` it is inactive: 0.307%.
Turning to `Cc1ccc(NP(=O)(Oc2ccccc2F)Oc2ccccc2F)nc1`, the activation was inactive: -0.378%.
For `CCOP(=O)(Nc1ccccc1)OCC` the value was inactive: 0.249% and inactive: -0.632%; for `Cc1cc(SC(NC(=O)c2ccc(F)cc2)C(Cl)(Cl)Cl)ncn1` (stereo unspecified), inactive: -0.946%.
`O=P(Nc1nc2ccc(Cl)cc2s1)(c1ccccc1)c1ccccc1`: the activation is inactive: 0.46%.
As to `O=C(O)c1ccccc1[As](=O)(O)O`, the activation was inactive: -0.407%.
With `CC(=O)Nc1ccc([As](=O)(O)O)cc1`, the activation is inactive: 0.582%.
